Molecules are shown by their SMILES.

Assay [1] deals with Human immunodeficiency virus type 1 reverse transcriptase (Human immunodeficiency virus 1) (UniProt Q72547). In words: Potency index, ratio of IC50 for nevirapine to IC50 for compound against wild type HIV1 reverse transcriptase.
The target is the same in assay [2]. In words: Potency index, ratio of IC50 for Efavirenz to IC50 for compound against wild type HIV1 reverse transcriptase.

As to `Cc1cc(C)cc(S(=O)(=O)c2c(C(=O)NCc3cccnc3)[nH]c3ccc(Cl)cc23)c1`, in assay [1], the Ratio IC50 was determined as 20.

For `Cc1cc(C)cc(S(=O)(=O)c2c(C(=O)NCc3ccncc3)[nH]c3ccc(Cl)cc23)c1`, the Ratio IC50 in assay [2] came to 2.

The values above are taken from ChEMBL document CHEMBL2163206, “New nitrogen containing substituents at the indole-2-carboxamide yield high potent and broad spectrum indolylarylsulfone HIV-1 non-nucleoside reverse transcriptase inhibitors” (J Med Chem, 2012).
